From patent US20050048646A1, “Method for inducing cytotoxic T lymphocyte” (MEDINET Co., Ltd., priority 2003, published 2005)

Tested on: HLA-A2 (HLA-A*0201) antigen positive T cells
Test: Induction of EBV antigen-specific CD8-positive CTLs by co-culture, quantified with EBV tetramer by flow cytometry
Assay type: cell-based, human
Conditions: CD80-expressing cell line, IL-2 500 U/ml on third day vs no IL-2
Experimental: The CD80-expressing cells of the MDA-MB/CD80G418 were co-cultured with lymphocytes and an Epstein-Barr virus (in the following, abbreviated as EBV) antigenic peptide, which was cancer antigenic peptide, thus confirming an induction of CTLs specific for the cancer antigen. For the above-noted EBV antigenic peptide, a peptide having the following amino acid sequence was used.
The condition of culturing these cells was as follows. • Temperature: 37° C. (5% CO2) • Used container: Falcon 24-well plate • Apparatus: CO2 incubator • Medium: AIM-V medium containing FCS or AB serum, or RPMI 1640 medium […]
After culturing, the ratio of the CD8-positive antigen-specific CTLs in the T cells was measured using the EBV antigen-specific tetramer (T-Select MHC Tetramer: manufactured by Medical & Biological Laboratories Co., Ltd.) (measurement after the first stimulation). […] After 6 to 8 days of culturing, the ratio of the CD8-positive antigen-specific CTLs in the T cells was measured similarly using the peptide-specific tetramer (measurement after the second stimulation).
The amounts of inducing the CD8-positive CTLs specific for the EBV antigen after the first stimulation and the second stimulation were analyzed using the tetramer by the following procedure. […]
The proliferation ratio of CD8-positive EBV-specific CTLs was measured similarly to Example 2 except the following. […]

Question: “IL-2: cytokine added at 500 U/ml on the third day of culture” was tested. Which “effect of adding IL-2 on specific CTL induction efficiency” value did it give?
Answer: improved specific CTL induction efficiency
